Reference: PubChem BioAssay AID803 (The Scripps Research Institute Molecular Screening Center, 2007)
The list shows a part of the results, in another mix than the full data. Calls of active or inactive are those of the source. Rule as the data show it: active = activation above about 5% (passing the limit was not always enough); inactive = the rest.

Chains of the proteins cited; added tags and fusions are not shown.
UniProt O43603, whole entry: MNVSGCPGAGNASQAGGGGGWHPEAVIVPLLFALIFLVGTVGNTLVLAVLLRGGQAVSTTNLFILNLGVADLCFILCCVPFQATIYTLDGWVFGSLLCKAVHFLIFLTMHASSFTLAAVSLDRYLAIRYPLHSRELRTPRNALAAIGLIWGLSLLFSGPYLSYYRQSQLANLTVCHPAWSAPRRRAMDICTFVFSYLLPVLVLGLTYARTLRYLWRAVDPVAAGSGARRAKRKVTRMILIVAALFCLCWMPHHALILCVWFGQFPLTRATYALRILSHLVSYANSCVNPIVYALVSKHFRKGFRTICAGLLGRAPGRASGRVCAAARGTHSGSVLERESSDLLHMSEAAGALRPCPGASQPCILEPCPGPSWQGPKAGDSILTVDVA

Each molecule was assayed against Galanin receptor type 2 (Homo sapiens) (UniProt O43603) (assay: GALR2 receptor agonists, primary screen, cell-based (AID 803;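 also: 0% = vehicle buffer wells and 100% = reference agonist at full effect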)). Conditions: GALR2-expressing cells, agonist activation read-out; at 5.6 µM; active compounds read high.

Row | SMILES | activation
1 | CCC(=O)N1C2C3N(C(=O)CC)C1C1N(C(=O)CC)C(C(N1C(=O)CC)N3C(=O)CC)N2C(=O)CC | inactive: -0.22%
2 | CCOC(=O)c1ccc(NP(C)(=O)Oc2ccc(F)cc2)cc1 (configuration not stated) | inactive: -2.62%
3 | CCOC(=O)NC(Sc1ccccc1)C(Cl)(Cl)Cl (configuration not stated) | inactive: -2.41%
4 | CCN(N=Nc1nonc1N)c1nonc1N | inactive: -0.33%
5 | Cc1nc2ccc3ccccc3c2o1.O=[N+]([O-])c1cc([N+](=O)[O-])c(O)c([N+](=O)[O-])c1 | inactive: -3.87%
6 | Cc1cc(SC(NC(=O)c2ccc(F)cc2)C(Cl)(Cl)Cl)ncn1 (configuration not stated) | inactive: 0.36%
7 | CCOP(=O)(Nc1ccccc1)OCC | inactive: -1.35%
8 | COc1ccccc1OP(C)(=O)Nc1ccc(C)c(C)c1 (configuration not stated) | inactive: -0.46%
9 | COc1ccc(OP(C)(=O)Nc2ccccc2Br)cc1 (configuration not stated) | inactive: -0.49%
10 | CP(=O)(Nc1ccccn1)Oc1ccccc1 (configuration not stated) | inactive: -0.18%
11 | COc1ccccc1OP(C)(=O)Nc1ccc(C)cc1C (configuration not stated) | inactive: -1.92%
12 | CCc1ccc(OP(C)(=O)O)cc1 | inactive: -2.36%
13 | Cc1c(NP(C)(=O)Oc2ccc(C(C)C)cc2)c(=O)n(-c2ccccc2)n1C (configuration not stated) | inactive: -2.27%
14 | CC(C)CC(=O)NC(Sc1ccc(Cl)cc1)C(Cl)(Cl)Cl (configuration not stated) | inactive: -1.86%
15 | O=C(NC(Sc1ccncn1)C(Cl)(Cl)Cl)c1ccccc1 (configuration not stated) | inactive: 1.92%
16 | Cc1c2non([O-])c-2c(C)[n+](=O)[n+]1[O-] | inactive: -0.9%

Row | SMILES | activation
17 | COc1ccc(OP(C)(=O)Nc2ccccn2)cc1 (configuration not stated) | inactive: -0.41%
18 | CN1CCCC(OC(=O)C(c2ccccc2)c2ccccc2)C1 (configuration not stated) | inactive: 1.29%
19 | CN(C)CCOC(=O)C(O)(c1ccccc1)C1CCCC1 (configuration not stated) | inactive: -0.95%
20 | CN(C)C(=O)OCCc1n(C)cc[n+]1C | inactive: -0.46%
21 | CC1CCN(C(=O)Oc2c(Cl)cc(Cl)c3cccnc23)CC1 | inactive: -0.6%
22 | CC(C)(C)c1ccc(OP(C)(=O)O)cc1 | inactive: -2.54%
23 | CP(=O)(Nc1ccc(Cl)cc1)Oc1ccc(F)cc1 (configuration not stated) | inactive: -1.4%
24 | O=[N+]([O-])c1cccc2n[nH]nc12 | inactive: -0.49%
25 | CC(=O)N1C2C3N(C(C)=O)C1C1N(C(C)=O)C(C(N1C(C)=O)N3C(C)=O)N2C(C)=O | inactive: -1.46%
26 | COc1ccccc1OP(C)(=O)Nc1c(C)n(C)n(-c2ccccc2)c1=O (configuration not stated) | inactive: -1.59%
27 | CP(=O)(Oc1ccccc1)N1CCOC1=O (configuration not stated) | inactive: -2.29%
28 | CCc1nc2c(n1)c1c(non1O)c1c2no[n+]1[O-] | inactive: -4.21%
29 | CCN(CC)CC(O)COC(=O)C(O)(c1ccccc1)C1CCCCC1 (configuration not stated) | inactive: 0.85%
30 | COc1ccc(OP(C)(=O)Nc2ccc(Br)cc2)cc1 (configuration not stated) | inactive: 0.26%
31 | CCOC(=O)c1ccc(NP(C)(=O)Oc2ccc(Cl)cc2)cc1 (configuration not stated) | inactive: -2.43%
32 | CP(=O)(OC12CC3CC(CC(C3)C1)C2)OC12CC3CC(CC(C3)C1)C2 | inactive: -0.29%
